Measured values from BindingDB's records for doi:10.1254/jjp.52.195 (Niigata College of Pharmacy, 1990).

Chains of the proteins cited; added tags and fusions are not shown.
UniProt P18090, whole entry: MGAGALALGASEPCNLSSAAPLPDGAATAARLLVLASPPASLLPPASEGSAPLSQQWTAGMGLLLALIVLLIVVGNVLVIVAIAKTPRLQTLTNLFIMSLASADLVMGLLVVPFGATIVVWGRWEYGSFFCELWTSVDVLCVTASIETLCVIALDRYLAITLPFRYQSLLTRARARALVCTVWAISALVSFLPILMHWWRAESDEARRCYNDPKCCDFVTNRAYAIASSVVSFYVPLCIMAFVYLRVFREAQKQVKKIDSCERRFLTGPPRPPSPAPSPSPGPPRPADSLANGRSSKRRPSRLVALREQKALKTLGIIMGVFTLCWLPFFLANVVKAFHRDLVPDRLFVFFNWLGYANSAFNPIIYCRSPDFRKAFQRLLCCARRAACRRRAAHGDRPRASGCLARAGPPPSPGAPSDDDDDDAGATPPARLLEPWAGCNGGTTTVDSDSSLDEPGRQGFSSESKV
UniProt P10608, whole entry: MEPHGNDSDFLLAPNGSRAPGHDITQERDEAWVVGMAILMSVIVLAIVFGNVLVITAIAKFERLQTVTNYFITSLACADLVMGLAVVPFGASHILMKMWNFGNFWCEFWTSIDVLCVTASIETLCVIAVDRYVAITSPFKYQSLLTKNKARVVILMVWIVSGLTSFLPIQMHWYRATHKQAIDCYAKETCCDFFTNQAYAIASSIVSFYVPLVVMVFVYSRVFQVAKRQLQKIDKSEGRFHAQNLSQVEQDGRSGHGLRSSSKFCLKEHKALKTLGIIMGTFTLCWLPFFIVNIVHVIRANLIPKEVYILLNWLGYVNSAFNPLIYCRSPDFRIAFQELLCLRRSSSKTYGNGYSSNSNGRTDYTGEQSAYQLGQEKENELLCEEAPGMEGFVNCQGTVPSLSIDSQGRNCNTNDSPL
UniProt P28564, whole entry: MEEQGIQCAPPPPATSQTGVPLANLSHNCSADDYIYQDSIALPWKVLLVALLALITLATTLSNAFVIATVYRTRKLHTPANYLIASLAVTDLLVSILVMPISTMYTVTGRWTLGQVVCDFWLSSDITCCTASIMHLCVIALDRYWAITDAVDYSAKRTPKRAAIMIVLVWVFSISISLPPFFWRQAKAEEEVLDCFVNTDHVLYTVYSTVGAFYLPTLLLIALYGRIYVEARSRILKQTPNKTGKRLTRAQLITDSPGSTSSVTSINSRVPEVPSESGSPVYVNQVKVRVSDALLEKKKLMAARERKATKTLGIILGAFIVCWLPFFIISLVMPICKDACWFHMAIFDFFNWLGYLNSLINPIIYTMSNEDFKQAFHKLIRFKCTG

Assays:
[1] = biological target: Beta-1 adrenergic receptor (Rattus norvegicus, UniProt P18090)
[2] = biological target: Beta-2 adrenergic receptor (Rattus norvegicus, UniProt P10608)
[3] = biological target: 5-hydroxytryptamine receptor 1B (Rattus norvegicus, UniProt P28564)

Question: Which results are given for `C=CCc1ccccc1OC[C@@H](O)CNC(C)C` [ALPRENOLOL,(-)]?
Answer: Ki [1]: 4.17 nM; Ki [2]: 0.58 nM

Question: How did the Ki [3] turn out when `CC(C)NCC(O)COc1ccc(CC(N)=O)cc1` (centres undefined) [Artrenolol] was run?
Answer: The Ki was over 10 µM.

Question: With `CCCC(=O)Nc1ccc(OCC(O)CNC(C)C)c(C(C)=O)c1` (centres undefined) [N-{3-acetyl-4-[2-hydroxy-3-(propan-2-ylamino)propoxy]phenyl}butanamide] as the compound, how does the Ki [1] read?
Answer: The Ki was 126 nM.
